Assay [1] concerns the target MDM2 (Homo sapiens, UniProt Q00987). Put plainly: Competitive fluorescence polarization assay for MDM2. The class given is binding. The note with it: Table 26A; competitive FP. (In fluorescence polarisation assays a small probe gives low polarisation when free and higher when bound to something large.)
The target of assay [2] is T1, MDMX (Homo sapiens, UniProt O15151).
T1 sequence (O15151 1-125): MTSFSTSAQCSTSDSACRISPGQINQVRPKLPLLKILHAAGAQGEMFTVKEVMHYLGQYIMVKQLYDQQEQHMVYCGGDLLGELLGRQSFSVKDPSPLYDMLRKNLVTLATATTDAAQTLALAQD
Description: Competitive fluorescence polarization assay MDMX. The class given is binding. The note with it: Table 26A; competitive FP.

Amino acid sequences for entries named in this document (tags omitted). Residues count along the entry.
UniProt Q00987, 1-125: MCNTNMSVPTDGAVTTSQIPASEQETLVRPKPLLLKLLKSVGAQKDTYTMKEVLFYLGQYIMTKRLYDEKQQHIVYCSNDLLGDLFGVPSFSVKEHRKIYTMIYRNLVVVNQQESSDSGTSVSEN

The subject of assay [3] is RKO cells. Put plainly: Cell viability assay (MTT) RKO. The note with it: read-out: RKO EC50 (72 h).
Assay [4] has as its system RKO-E6 cells. Description: Cell viability assay (MTT) RKO-E6. The note with it: read-out: RKO-E6 EC50 (72 h).
Assay [5] has as its system SW-480 cells. Put plainly: Cell viability assay (MTT) SW-480. The note with it: read-out: SW480 EC50 (6 days).
Assay [6] deals with HCT-116 cells. Description: Cell viability assay (MTT) HCT-116. The note with it: read-out: HCT-116 EC50 (72 h).

As a reminder, the IC50 is the concentration at which inhibition is half-maximal. The term Ki denotes the equilibrium dissociation constant of an inhibitor or competing ligand from its target. High values mean a looser hold on the target, low ones a stronger hold on the target. By EC50 is commonly meant the concentration needed to bring the measured effect to its halfway point.

Consider “315 (LTFAAYWAQLAAAAAAA; Ac, NH2, hydrocarbon staple; N-term Ac; MOD_RES (4)..(4): Alpha-Me R-azide 1,4 triazole (6 carbon) alanine olefin amino acid connected by an all-carbon crosslinker comprising one double bond; misc_feature (4)..(11): Crosslink between residues; MOD_RES () [compound 315]”, for which the IC50 in assay [1] and in assay [2] was 10 to 100 nM each time. Also, the inhibitory constant (Ki) in assay [1] was below 10 nM; in assay [2] it was 10 to 100 nM. The EC50 is below 5000 nM in assay [3], 15000 to 30000 nM in assay [4], below 5000 nM in assay [5] and below 5000 nM in assay [6].

The values above are taken from patent US20170349638A1, “COMPANION DIAGNOSTIC TOOL FOR PEPTIDOMIMETIC MACROCYCLES” (AILERON Therapeutics, Inc., priority 2016, published 2017).
